Test results reported in article PMC8359458 (British Journal of Clinical Pharmacology, 2021).

Parameters: species or system human
Settings: in vivo

## CC(=O)C[C@@H](c1ccccc1)c1c(O)c2ccccc2oc1=O [S‐warfarin]
  within‐subject variation in Cmax and AUC: ≤ 14.2%
